Results on three molecules are retold here after ChEMBL document CHEMBL1135170, “4,4-Disubstituted cyclohexylamine NK(1) receptor antagonists II” (Bioorg Med Chem Lett, 2002).

Amino acid sequences for entries named in this document (tags omitted). A change or cut given only in a name is not applied to a line headed by its entry.
UniProt Q12809: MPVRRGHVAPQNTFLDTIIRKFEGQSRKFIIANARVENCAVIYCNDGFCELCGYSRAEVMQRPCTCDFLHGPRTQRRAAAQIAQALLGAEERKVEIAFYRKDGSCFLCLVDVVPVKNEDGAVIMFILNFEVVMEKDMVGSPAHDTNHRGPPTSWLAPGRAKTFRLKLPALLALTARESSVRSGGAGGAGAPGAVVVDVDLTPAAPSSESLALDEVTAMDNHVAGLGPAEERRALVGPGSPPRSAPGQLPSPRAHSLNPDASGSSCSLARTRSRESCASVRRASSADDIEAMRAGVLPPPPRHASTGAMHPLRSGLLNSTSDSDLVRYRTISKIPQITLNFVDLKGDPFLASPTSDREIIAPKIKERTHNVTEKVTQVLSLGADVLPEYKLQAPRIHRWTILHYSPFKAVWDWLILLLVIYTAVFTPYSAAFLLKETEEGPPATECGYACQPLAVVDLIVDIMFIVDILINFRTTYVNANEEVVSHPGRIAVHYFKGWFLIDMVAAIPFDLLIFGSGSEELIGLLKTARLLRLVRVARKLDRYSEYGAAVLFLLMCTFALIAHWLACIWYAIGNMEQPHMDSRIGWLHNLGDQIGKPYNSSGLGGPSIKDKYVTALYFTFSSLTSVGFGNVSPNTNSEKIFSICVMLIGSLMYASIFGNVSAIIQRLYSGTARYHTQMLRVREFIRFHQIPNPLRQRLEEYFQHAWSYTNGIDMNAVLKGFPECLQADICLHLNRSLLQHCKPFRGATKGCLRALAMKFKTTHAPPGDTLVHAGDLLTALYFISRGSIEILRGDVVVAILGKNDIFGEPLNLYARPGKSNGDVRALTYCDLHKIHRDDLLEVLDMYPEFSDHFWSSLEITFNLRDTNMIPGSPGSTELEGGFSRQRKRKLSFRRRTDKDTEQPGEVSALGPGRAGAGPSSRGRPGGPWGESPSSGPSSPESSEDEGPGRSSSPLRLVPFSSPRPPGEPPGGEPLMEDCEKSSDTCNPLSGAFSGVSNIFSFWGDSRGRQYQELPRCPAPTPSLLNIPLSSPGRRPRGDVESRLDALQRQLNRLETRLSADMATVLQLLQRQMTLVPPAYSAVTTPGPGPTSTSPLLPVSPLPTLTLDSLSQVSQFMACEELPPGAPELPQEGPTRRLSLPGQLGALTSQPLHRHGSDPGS

This assay addresses Voltage-gated inwardly rectifying potassium channel KCNH2 (Homo sapiens, UniProt Q12809). The experiment in a line: Compound was evaluated for the displacement of labelled MK-499 from the cloned channel expressed in HEK cells (Ikr channel). In kind it is cell-based, HEK293.

The structures appear in SMILES notation.

One may read the Ki as the equilibrium dissociation constant of an inhibitor or competing ligand from its target. Molecule `CC(C(=O)N[C@]1(c2ccccc2)CC[C@@H](N2CCC(=O)CC2)CC1)c1cc(C(F)(F)F)cc(C(F)(F)F)c1` (stereo partly drawn) returned a Ki of 4000 nM.
In turn, `CC(C(=O)N[C@]1(c2ccccc2)CC[C@@H](N2CCN(C(C)C)CC2)CC1)c1cc(C(F)(F)F)cc(C(F)(F)F)c1` (stereo partly drawn) gave an inhibitory constant (Ki) of 1200 nM.
The figure for `CC(C(=O)NC1(c2ccccc2)CCC(N2CCC3(CCOC3)CC2)CC1)c1cc(C(F)(F)F)cc(C(F)(F)F)c1` (stereo not drawn) is 710 nM.
